# Measurements: patent publication US11707527B2, “Nanoscale drug carrier capable of passing through blood-brain barrier” (KUNSHAN XINYUNDA BIOTECH CO., LTD., priority 2017, dated 2023)
# Tests used:
# Type in all cases: cell-based
# [1] = test system: human BBB brain endothelial hCMEC/D3 cells; experiment: Specific binding of FITC-labeled ferritin to human brain endothelial cells (flow cytometry); details: 50 μg/ml FITC-labeled protein, 45 min, 4° C., hCMEC/D3, vs FITC-BSA
# Procedure: Firstly, the invention proves in vitro that the receptor TfR1 of H-ferritin is highly expressed on human BBB brain endothelial hCMEC/D3 cells.
# Human BBB brain endothelial hCMEC/D3 cells were cultured to about 1×10^5 (100×20 mm, dish Corning, USA) and digested with trypsin, then the cells were washed with 0.3% (w/v) BSA/PBS (pH7.4) for three times. […] The cells were washed with 0.3% BSA/PBS for three times, finally resuspended in PBS (pH7.4). And fluorescence of the samples was tested by flow cytometry (at a wavelength of 488 nm).
# [2] = test system: human BBB brain endothelial cells hCMEC/D3; experiment: Endocytosis and lysosome co-localization in human brain endothelial cells (confocal microscopy)
# Procedure: Human BBB brain endothelial cells hCMEC/D3 slides (BD Biosciences) were placed in a 6-well plate (with well diameter of 34.8 mm, Corning, USA) for culturing above to a density of about 60%, then the experiment was conducted. 1 μM FITC-labeled H-ferritin above was added, and incubated respectively for 5 min and 6 min at 37° C. Then the cells were washed with 0.3% BSA/PBS for three times, and finally fixed with 4% paraformaldehyde. After being washed with PBS (pH7.4) for three times, cell nuclei were stained with DAPI (Roche Applied Science) 10 min at room temperature. After being washed by PBS for three times again, the slides were mounted with a mounting medium, and observed by laser confocal microscopy (Olympus FluoView FV-1000, Tokyo, Japan).
# Human BBB brain endothelial cells hCMEC/D3 slides (BD Biosciences) were placed in a 6-well plate for culturing to a density of about 60%, and then the experiment was conducted. 1 μM FITC-labeled H-ferritin was added, and Alexa Fluor 488-labeled mouse anti-human TfR1 monoclonal antibodies (1:200, Clone: M-A712, Santa Cruz) were added in the control group for incubation for 4 h in an incubator. The cells were fixed with 4% paraformaldehyde after being washed with PBS for three times. […]
# [3] = test system: human glioma U87-MG cells; experiment: Specific binding to human glioma cells (flow cytometry); details: 50 μg/ml FITC-labeled, 45 min, 4° C.
# Procedure: Human glioma U87-MG cells were cultured to about 1×10^5 and digested with trypsin. Then the cells were washed with 0.3% (w/v) BSA/PBS for three times. […] And then the cells were washed with 0.3% BSA/PBS for three times, finally resuspended in PBS. Fluorescence of the samples was measured by flow cytometry (wavelength 488).
# [4] = test system: human glioma U87-MG cells; experiment: Co-localization with lysosome in human glioma cells (confocal microscopy); details: 1 μM FITC-labeled, 4 h
# Procedure: Human glioma U87-MG cells slides (BD Biosciences) were placed in a 6-well plate (with a well diameter of 34.8 mm, Corning, USA) for culturing to a density of about 60%. 1 μM FITC-labeled H-ferritin was added and incubated for 4 h in an incubator. The cells were fixed for 5 min with 4% paraformaldehyde after being washed with PBS (pH7.4) for three times. Then 0.1% Triton X-100 was used for cell permeabilization. After being washed with PBS again, the cells were blocked with 5% goat serum (ZSGB-BIO) for 30 min at room temperature, and then incubated with Alexa Fluor®555-labeled antibody and lysosome marker molecule LAMP1 (1:200, clone H4A3; Invitrogen) for 1 h at 37° C. Finally, cell nuclei were stained with DAPI (1 μg/mL, Roche Applied Science) for 10 min at room temperature.
substance,measurement,setting,value
"HFn: 24-polymer cage protein self-assembled by H subunits of human ferritin, SEQ ID NO: 10, NCBI NP_002023.2",specific binding with human brain endothelial cells,[1],"specifically, directly binds"
same,endocytosis by human brain endothelial cells,"[2]; 1 μM FITC-labeled, 37° C., 60 min, hCMEC/D3",effectively absorbed and endocytosed
same,entering / co-localization with lysosome (LAMP1) in brain endothelial cells,"[2]; hCMEC/D3, 4 h incubation",do not enter the lysosome
same,specific binding to human glioma cells,[3],can directly bind
same,entering lysosome (LAMP1) in glioma cells,[4],almost all antibodies enter the lysosome
